# Source: patent US20080255104A1, “Nsaid Compositions” (EQUITECH CORPORATION, priority 2004, published 2008)
# Assay: Oral bioavailability of ibuprofen crushed tablets in control and vagal-suppressed (Pain Model) rats
# Type: in vivo, Sprague-Dawley rats
# Conditions: propantheline-treated (vagal suppression) rats, 20 mg/kg oral
# Text: Delayed absorption caused by vagal suppression that has previously been reported in the literature (e.g., Jamali & Axelson, 1997) was used to test the absorption rates of new meloxicam formulations.
# The animal models are adult male Sprague-Dawley rats with body weight of 250-300 g, and which were cared for in accordance with the principles and guidelines of the Canadian Council of Animal Care. All rats were catheterized in the right jugular vein for sample collection.
# An animal model having suppressed vagal properties were produced by administering (intraperitoneal injection) to the rats two 20 mg/kg doses of propantheline (test, n=6), an anticholinergic agent with known vagal suppressive properties, the first dose at 2 hours prior to administration of an NSAID, and the second at 1 hour prior.
# The tablets were crushed gently and small pieces were administered into the stomach via a plastic tube followed by 0.5 mL tap water. Animals were fasted after the first dose of propantheline until 4 hours post-meloxicam dose. They had free access to water.
compound,measurement,value
CC(C)Cc1ccc(C(C)C(=O)O)cc1 (racemic) [ibuprofen],AUC(0-1),12.2 µg/h/mL
